Drawing on patent US20040102454A1, “Phenylahistin and the phenylahistin analogs, a new class of anti-tumor compounds” (priority 1998, published 2004), this text covers microtubule depolymerization for one compound.

The subject of this experiment is tubulin in Human umbilical vein endothelial cells (HuVEC). Briefly: Action on microtubule function, staining for α-tubulin. The format is cell-based. The settings on record: 2 μM, thirty minutes exposure.

The structures appear in SMILES notation.

Regarding `COc1cc2c(c(OC)c1OC)-c1ccc(OC)c(=O)cc1[C@@H](NC(C)=O)CC2` [colchicine], the microtubule depolymerization result is “induced microtubule depolymerization”.
